The values below come from US9290459B1, “Substituted bicyclic dihydropyrimidinones and their use as inhibitors of neutrophil elastase activity” (Boehringer Ingelheim International GmbH, priority 2013, dated 2016).

Amino acid sequences for entries named in this document (tags omitted). Residues count along the entry.
UniProt P08246, 30-247: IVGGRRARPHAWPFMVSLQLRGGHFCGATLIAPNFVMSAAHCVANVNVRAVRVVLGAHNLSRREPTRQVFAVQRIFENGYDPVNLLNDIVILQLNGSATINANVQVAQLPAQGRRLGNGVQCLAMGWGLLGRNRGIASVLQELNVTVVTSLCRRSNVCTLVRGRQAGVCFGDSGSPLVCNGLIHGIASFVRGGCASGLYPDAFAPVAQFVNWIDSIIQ
UniProt P11712, whole entry: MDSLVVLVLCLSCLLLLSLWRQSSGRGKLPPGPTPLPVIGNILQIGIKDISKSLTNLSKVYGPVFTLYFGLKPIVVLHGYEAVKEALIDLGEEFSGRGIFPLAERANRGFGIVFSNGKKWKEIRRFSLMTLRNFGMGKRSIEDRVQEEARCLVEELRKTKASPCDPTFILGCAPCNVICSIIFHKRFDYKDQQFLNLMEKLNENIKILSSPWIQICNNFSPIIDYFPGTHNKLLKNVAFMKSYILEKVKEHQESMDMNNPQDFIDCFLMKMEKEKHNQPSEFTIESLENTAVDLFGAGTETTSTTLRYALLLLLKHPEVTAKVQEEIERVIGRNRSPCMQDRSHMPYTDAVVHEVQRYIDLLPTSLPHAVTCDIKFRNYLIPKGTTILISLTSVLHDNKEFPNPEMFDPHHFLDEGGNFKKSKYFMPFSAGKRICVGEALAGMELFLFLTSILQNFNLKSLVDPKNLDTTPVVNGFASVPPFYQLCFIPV
UniProt P33261, whole entry: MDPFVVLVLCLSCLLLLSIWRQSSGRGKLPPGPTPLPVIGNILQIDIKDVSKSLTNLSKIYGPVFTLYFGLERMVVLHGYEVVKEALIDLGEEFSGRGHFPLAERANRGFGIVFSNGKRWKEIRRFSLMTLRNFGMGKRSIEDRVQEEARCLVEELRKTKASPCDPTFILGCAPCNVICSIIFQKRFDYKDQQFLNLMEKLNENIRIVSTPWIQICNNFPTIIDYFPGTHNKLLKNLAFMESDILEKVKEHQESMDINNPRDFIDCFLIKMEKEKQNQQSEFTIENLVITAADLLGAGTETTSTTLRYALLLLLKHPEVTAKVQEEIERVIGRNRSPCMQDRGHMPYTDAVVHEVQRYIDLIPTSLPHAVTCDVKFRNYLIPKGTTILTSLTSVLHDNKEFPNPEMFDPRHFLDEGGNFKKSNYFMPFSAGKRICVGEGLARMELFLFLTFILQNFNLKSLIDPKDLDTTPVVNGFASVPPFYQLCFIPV

A value given as a limit tells only on which side of the number the result lay.

Data set [1] concerns the target neutrophil elastase in human plasma (Homo sapiens (Human), UniProt P08246). As to the kind of experiment: Neutrophil elastase inhibitory activity in human plasma (zymosan-stimulated blood). The conditions noted are these: neutrophil elastase enriched human plasma from zymosan-stimulated blood. The class given is biochemical.
Data set [2] has as its target cytochrome P450 2C9 (Homo sapiens (Human), UniProt P11712). The conditions noted are these: read-out: CYP2C9 IC50; human liver microsomes, Diclofenac hydroxylation.
In data set [3] the target is cytochrome P450 2C19 (Homo sapiens (Human), UniProt P33261). The following applies: read-out: CYP2C19 IC50; human liver microsomes, (S)-Mephenytoin hydroxylation.
For data set [4], the target named is Human neutrophil elastase (Homo sapiens (Human), UniProt P08246). The data set is described as follows: Human Neutrophil Elastase Assay. The following applies: substrate MeOSuc-Ala-Ala-Pro-Val-AMC 250 μM, pH 7.5.

As a reminder, the EC50 is the midpoint of the concentration-response curve. A high value points to lower potency in that assay. By IC50 is commonly meant the concentration needed to halve the response being measured.

On to `CN1C(=O)N(c2cccc(C(F)(F)F)c2)C2=C(C(=O)CC2)[C@H]1c1ccc(C#N)cc1` [Example 2A, (R)-4-(3-Methyl-2,5-dioxo-1-(3-(trifluoromethyl)phenyl)-2,3,4,5,6,7-hexahydro-1H-cyclopenta[d]pyrimidin-4-yl)benzonitrile], for which, in data set [1], it took 3 nM to reach a half-maximal effect (EC50). For `N#Cc1ccc([C@@H]2C3=C(CCC3=O)N(c3cccc(C(F)(F)F)c3)C(=O)N2C(=O)NCCO)cc1` [Example 7.2A, (R)-4-(4-Cyanophenyl)-N-(2-hydroxyethyl)-2,5-dioxo-1-(3-(trifluoromethyl)phenyl)-4,5,6,7-tetrahydro-1H-cyclopenta[d]pyrimidine-3(2H)-carboxamide], the IC50 in data set [2] and in data set [3] was greater than 50000 nM throughout. Take `CS(=O)(=O)CCNC(=O)N1C(=O)N(c2cccc(C(F)(F)F)c2)C2=C(C(=O)CC2)C1c1ccc(C#N)cc1F` (stereo not shown) [Example 49.3]: the half-inhibitory concentration (IC50) in data set [4] worked out at 1 nM. In data set [1], this compound had an EC50 of 7 nM. For `CC(C)NC(=O)N1C(=O)N(c2cccc(C(F)F)c2)C2=C(C(=O)CC2)C1c1ccc(C#N)cc1S(C)(=O)=O` (stereo not shown) [Example 53.4], in that order: less than 1 nM and less than 1 nM.
